{"sequences": {"note": "Sequences of proteins named here, by UniProt entry; tags and fusion partners are left off.", "UniProt P16050, whole entry": "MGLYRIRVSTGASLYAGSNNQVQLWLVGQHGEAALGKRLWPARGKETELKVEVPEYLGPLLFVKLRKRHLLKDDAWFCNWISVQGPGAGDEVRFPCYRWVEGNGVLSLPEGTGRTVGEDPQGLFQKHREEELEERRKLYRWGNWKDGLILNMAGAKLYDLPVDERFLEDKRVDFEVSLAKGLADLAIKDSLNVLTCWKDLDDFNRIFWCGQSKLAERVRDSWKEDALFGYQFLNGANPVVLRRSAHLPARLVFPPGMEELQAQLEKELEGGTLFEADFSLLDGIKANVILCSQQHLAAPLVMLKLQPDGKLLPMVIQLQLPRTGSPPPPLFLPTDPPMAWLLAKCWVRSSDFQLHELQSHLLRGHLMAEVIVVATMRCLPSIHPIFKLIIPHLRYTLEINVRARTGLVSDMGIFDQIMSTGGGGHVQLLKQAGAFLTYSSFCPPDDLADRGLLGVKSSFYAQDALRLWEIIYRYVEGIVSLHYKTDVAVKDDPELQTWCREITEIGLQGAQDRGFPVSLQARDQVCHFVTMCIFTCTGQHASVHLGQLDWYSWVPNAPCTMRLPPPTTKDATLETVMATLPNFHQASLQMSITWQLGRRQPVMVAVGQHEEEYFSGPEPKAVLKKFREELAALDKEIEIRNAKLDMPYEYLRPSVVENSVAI"}, "source": "PubChem BioAssay AID887", "about": "(National Center for Advancing Translational Sciences (NCATS), 2007)", "note": "The entries are a selection whose mix differs from that of the whole data set. Records with an inconclusive call do not appear. The source made the active and inactive calls. Calls come from the whole dose curve; as a rule, active = well fitted inhibition curve with a large enough effect; inconclusive = small, poorly fitted or top-dose-only effect; inactive = no such curve, though single readings can be large or run the other way. % is set by controls: 0 for no effect and ±100 for the full control effect.", "data": [{"biological_target": "Polyunsaturated fatty acid lipoxygenase ALOX15 (Homo sapiens) (UniProt P16050)", "assay": "qHTS Assay for Inhibitors of 15-hLO (15-human lipoxygenase); note: nearly all actives have a fitted effect of over 55% in size", "settings": "purified 15hLO-1, xylenol orange hydroperoxide absorbance; at 57.1 µM (top of the series) unless noted", "values": [{"smiles": "Cc1nc2ccc3ccccc3c2s1.O=[N+]([O-])c1cc([N+](=O)[O-])c(O)c([N+](=O)[O-])c1", "activity change, negative = inhibition": "inactive: -9.17%"}, {"smiles": "Cc1ccc([N+](=O)[O-])cc1[N+](=O)[O-]", "activity change, negative = inhibition": "inactive: -6.53%"}, {"smiles": "O=[N+]([O-])c1cccc([N+](=O)[O-])c1", "activity change, negative = inhibition": "inactive: 1.75%"}, {"smiles": "Cc1ccc(C)c(NP(C)(=O)Oc2ccccc2)c1", "note": "(centres undefined)", "activity change, negative = inhibition": "inactive: 0.472%"}, {"smiles": "O=[N+]([O-])[O-].[NH4+]", "activity change, negative = inhibition": "inactive: 3.74%"}, {"smiles": "COc1ccccc1OP(C)(=O)Nc1ccc(C)cc1", "note": "(centres undefined)", "activity change, negative = inhibition": "inactive: 8.9%"}, {"smiles": "Cc1ccc(NP(C)(=O)Oc2ccccc2)c(C)c1", "note": "(centres undefined)", "activity change, negative = inhibition": "inactive: 4.79%"}, {"smiles": "CP(=S)(Nn1cnnc1)Oc1ccccc1", "note": "(centres undefined)", "activity change, negative = inhibition": "inactive: 2.24%"}, {"smiles": "N1=C(c2nnc(-c3nn[nH]n3)nn2)NNN1", "activity change, negative = inhibition": "inactive: 5.01% [at 11.4 µM]"}, {"smiles": "CCOP(C)(=S)SCC(=O)NC(C)C(=O)O", "note": "(centres undefined)", "activity change, negative = inhibition": "inactive: 1.91%"}, {"smiles": "CP(=O)(NC(=O)Nc1ccccc1)Oc1ccccc1", "note": "(centres undefined)", "activity change, negative = inhibition": "inactive: 1.14%"}, {"smiles": "CP(=O)(Oc1ccccc1)N1CCOC1=O", "note": "(centres undefined)", "activity change, negative = inhibition": "inactive: 9.51%"}, {"smiles": "OCCSCCO", "activity change, negative = inhibition": "inactive: -1.99%"}, {"smiles": "N#[O+].[C-]#N.[C-]#N.[C-]#N.[C-]#N.[C-]#N.[Fe+2].[Na+].[Na+]", "activity change, negative = inhibition": "inactive: -13.7%"}, {"smiles": "C/C1=C2N=C(/C=C3N=C(/C(C)=C4\\[N-][C@@](C)([C@H]5N=C1[C@@](C)(CCC(=O)NC[C@H](C)OP(=O)([O-])O[C@@H]1[C@H](O)[C@H](n6cnc7cc(C)c(C)cc76)O[C@@H]1CO)[C@@H]5CC(N)=O)[C@](C)(CC(N)=O)[C@H]4CCC(N)=O)[C@@](C)(CC(N)=O)[C@@H]\\3CCC(N)=O)C(C)(C)[C@@H]/2CCC(N)=O.[C-]#N.[Co+3]", "activity change, negative = inhibition": "inactive: 6.47% [at 25.6 µM]"}, {"smiles": "COc1ccccc1OP(C)(=O)Nc1ccc(C)c(C)c1", "note": "(centres undefined)", "activity change, negative = inhibition": "inactive: 15.2%"}, {"smiles": "CP(=O)(Nc1ccccn1)Oc1ccccc1", "note": "(centres undefined)", "activity change, negative = inhibition": "inactive: 5.29%"}, {"smiles": "CP(=O)(Nc1ccccc1F)Oc1ccccc1", "note": "(centres undefined)", "activity change, negative = inhibition": "inactive: 0.141%"}, {"smiles": "CCC(C)(OO)OOC(C)(CC)OO", "note": "(centres undefined)", "activity change, negative = inhibition": "inactive: -23%"}, {"smiles": "Cc1cccc([N+](=O)[O-])c1[N+](=O)[O-]", "activity change, negative = inhibition": "inactive: 4.64%"}, {"smiles": "Cc1c([N+](=O)[O-])cccc1[N+](=O)[O-]", "activity change, negative = inhibition": "inactive: -3.01%"}, {"smiles": "Cc1ccc([N+](=O)[O-])c([N+](=O)[O-])c1", "activity change, negative = inhibition": "inactive: 1.08%"}, {"smiles": "CN(C)CCOC(=O)C(O)(c1ccccc1)C1CCCCC1", "note": "(centres undefined)", "activity change, negative = inhibition": "inactive: -2.4%"}, {"smiles": "Cc1ccccc1NP(C)(=O)Nc1ccccc1C", "activity change, negative = inhibition": "inactive: -1.75%"}, {"smiles": "CCN(CCCl)Cc1ccccc1C", "activity change, negative = inhibition": "inactive: -2.58%"}, {"smiles": "[NH4+].[O-][Cl+3]([O-])([O-])[O-]", "activity change, negative = inhibition": "inactive: -1.51%"}, {"smiles": "CP(=O)(Nc1ccc2c(c1)OCCO2)Oc1ccccc1", "note": "(centres undefined)", "activity change, negative = inhibition": "inactive: 13.4%"}, {"smiles": "CCOP(=O)(CC)OCC", "activity change, negative = inhibition": "inactive: -9.51%"}, {"smiles": "CCOP(C)(=S)SCC(=O)NC(C)(CC)C(=O)O", "note": "(centres undefined)", "activity change, negative = inhibition": "inactive: -6.67%"}]}]}
